The target in this assay is IGF1-receptor (Homo sapiens, UniProt P08069). In words: IGF1-Receptor Tyrosine Kinase Assay. To be noted: ATP 25 μM; IGF1-Receptor 14 nM; Caliper LabChip 3000; read-out: IGF1R IC50. It is filed as biochemical. The method, then:
D. IGF1-Receptor Tyrosine Kinase Assay
The assays were performed in U-bottom 384-well plates. The final assay volume was 30 μl prepared from 15 μl additions of enzyme and substrates (fluoresceinated IGF1R substrate peptide and ATP) and test compounds in assay buffer (100 mM HEPES pH 7.4, 10 mM MnCl2, 0.015% Brij35 and 4 mM DTT). The reaction was initiated by the combination of IGF1-receptor with substrates and test compounds. The reaction was incubated at room temperature for 60 min. and terminated by adding 30 μl of 35 mM EDTA to each sample. The reaction mixture was analyzed on the Caliper LabChip 3000 by electrophoretic separation of the fluorescent substrate and phosphorylated product. Inhibition data were calculated by comparison to no enzyme control reactions for 100% inhibition and vehicle-only reactions for 0% inhibition. The final concentration of reagents in the assays is ATP, 25 μM; FL-peptide, 1.5 μM; IGF1-Receptor, 14 nM; and DMSO, 1.6%. Dose response curves were generated to determine the concentration required inhibiting 50% of kinase activity (IC50). Compounds were dissolved at 10 mM in dimethylsulfoxide (DMSO) and evaluated at eleven concentrations, each in duplicate. IC50 values were derived by non-linear regression analysis

Protein sequences, listed by entry. Tags and fused reporters are not part of them. Residues count along the entry.
UniProt P08069, 31-1367: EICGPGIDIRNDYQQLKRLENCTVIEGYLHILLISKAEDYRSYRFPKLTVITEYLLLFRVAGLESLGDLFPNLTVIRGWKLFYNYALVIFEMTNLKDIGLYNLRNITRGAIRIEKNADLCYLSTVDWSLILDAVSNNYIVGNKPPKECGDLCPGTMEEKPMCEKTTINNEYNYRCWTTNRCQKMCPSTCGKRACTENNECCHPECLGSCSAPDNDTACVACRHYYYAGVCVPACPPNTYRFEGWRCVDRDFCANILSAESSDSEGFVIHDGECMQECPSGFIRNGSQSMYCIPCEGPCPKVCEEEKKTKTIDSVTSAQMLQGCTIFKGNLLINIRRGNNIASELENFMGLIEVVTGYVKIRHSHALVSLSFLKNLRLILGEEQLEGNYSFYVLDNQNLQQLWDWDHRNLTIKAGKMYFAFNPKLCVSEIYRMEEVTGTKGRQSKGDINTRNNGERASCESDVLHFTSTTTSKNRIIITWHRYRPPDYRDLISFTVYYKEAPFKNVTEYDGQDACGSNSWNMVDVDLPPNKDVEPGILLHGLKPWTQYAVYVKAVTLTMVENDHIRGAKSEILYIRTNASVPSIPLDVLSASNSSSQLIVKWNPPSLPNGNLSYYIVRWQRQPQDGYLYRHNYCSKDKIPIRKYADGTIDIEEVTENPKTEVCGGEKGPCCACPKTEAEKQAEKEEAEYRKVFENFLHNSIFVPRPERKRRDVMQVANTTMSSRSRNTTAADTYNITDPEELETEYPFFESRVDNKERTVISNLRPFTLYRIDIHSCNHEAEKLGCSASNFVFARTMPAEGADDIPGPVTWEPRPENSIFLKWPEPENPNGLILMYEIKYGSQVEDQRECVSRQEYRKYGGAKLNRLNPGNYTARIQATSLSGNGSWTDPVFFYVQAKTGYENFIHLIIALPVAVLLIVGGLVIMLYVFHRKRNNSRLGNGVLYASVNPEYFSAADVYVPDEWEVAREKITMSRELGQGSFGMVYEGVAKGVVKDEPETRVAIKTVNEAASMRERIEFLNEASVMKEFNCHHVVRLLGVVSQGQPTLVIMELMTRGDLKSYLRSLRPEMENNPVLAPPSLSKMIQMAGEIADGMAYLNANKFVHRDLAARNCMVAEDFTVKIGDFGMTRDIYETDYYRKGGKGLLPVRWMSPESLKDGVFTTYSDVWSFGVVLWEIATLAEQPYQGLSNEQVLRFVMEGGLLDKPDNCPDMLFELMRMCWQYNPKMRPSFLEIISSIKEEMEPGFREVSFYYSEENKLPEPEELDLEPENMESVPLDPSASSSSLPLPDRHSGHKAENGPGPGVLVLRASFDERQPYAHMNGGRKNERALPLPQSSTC

We go through one compound from patent US8198438B2, “Pyrrolotriazine kinase inhibitors” (Bristol-Myers Squibb Company, priority 2007, dated 2012).

Each structure is given as a SMILES string.

With `O=C(c1ccc(F)nc1)N1CCC[C@H]1c1nc(Nc2cc(C3CC3)[nH]n2)c2cccn2n1` [Example 1, (S)-(2-(4-(5-Cyclopropyl-1H-pyrazol-3-ylamino)pyrrolo[1,2-f][1,2,4]triazin-2-yl)pyrrolidin-1-yl)(6-fluoropyridin-3-yl)methanone], the IC50 worked out at 7 nM.

What is called IC50 is the concentration at which inhibition is half-maximal.
